Laboratory results published in PMC2475716 (The Journal of Biological Chemistry, 2008).

Target: T1, Decoy Met (UniProt P08581 25-932)
T1 sequence (looked up): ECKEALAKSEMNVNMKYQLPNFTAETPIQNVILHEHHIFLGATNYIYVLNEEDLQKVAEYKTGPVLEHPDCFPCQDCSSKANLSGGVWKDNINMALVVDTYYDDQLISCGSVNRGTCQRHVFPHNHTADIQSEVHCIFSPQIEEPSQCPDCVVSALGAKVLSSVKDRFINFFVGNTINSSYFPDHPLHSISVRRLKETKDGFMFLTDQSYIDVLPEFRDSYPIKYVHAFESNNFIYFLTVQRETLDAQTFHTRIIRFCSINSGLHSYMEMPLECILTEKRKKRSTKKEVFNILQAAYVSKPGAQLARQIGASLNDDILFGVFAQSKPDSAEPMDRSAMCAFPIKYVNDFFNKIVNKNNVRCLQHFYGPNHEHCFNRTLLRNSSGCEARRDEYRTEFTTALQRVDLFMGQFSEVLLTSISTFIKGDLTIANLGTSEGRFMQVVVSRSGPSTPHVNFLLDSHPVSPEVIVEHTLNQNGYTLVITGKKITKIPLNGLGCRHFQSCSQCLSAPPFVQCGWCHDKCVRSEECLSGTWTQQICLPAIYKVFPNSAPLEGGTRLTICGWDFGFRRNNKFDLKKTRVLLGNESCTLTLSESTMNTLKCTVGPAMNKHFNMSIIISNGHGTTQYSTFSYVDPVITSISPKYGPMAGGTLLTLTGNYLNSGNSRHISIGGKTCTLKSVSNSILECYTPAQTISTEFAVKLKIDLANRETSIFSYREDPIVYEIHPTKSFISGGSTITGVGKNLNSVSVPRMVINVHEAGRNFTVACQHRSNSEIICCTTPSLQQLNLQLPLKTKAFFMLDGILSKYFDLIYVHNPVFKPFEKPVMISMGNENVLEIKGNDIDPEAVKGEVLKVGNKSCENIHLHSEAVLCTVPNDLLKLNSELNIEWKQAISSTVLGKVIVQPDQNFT
Assay: ELISA

- fold reduced affinity compared with active HGF: 3 fold
B1: pro-HGF (uncleavable HGF) (ligand, UniProt P14210 32-728, looked up)
chain: QRKRRNTIHEFKKSAKTTLIKIDPALKIKTKKVNTADQCANRCTRNKGLPFTCKAFVFDKARKQCLWFPFNSMSSGVKKEFGHEFDLYENKDYIRNCIIGKGRSYKGTVSITKSGIKCQPWSSMIPHEHSFLPSSYRGKDLQENYCRNPRGEEGGPWCFTSNPEVRYEVCDIPQCSEVECMTCNGESYRGLMDHTESGKICQRWDHQTPHRHKFLPERYPDKGFDDNYCRNPDGQPRPWCYTLDPHTRWEYCAIKTCADNTMNDTDVPLETTECIQGQGEGYRGTVNTIWNGIPCQRWDSQYPHEHDMTPENFKCKDLRENYCRNPDGSESPWCFTTDPNIRVGYCSQIPNCDMSHGQDCYRGNGKNYMGNLSQTRSGLTCSMWDKNMEDLHRHIFWEPDASKLNENYCRNPDDDAHGPWCYTGNPLIPWDYCPISRCEGDTTPTIVNLDHPVISCAKTKQLQVVNGIPTRTNIGWMVSLRYRNKHICGGSLIKESWVLTARQCFPSRDLKDYEAWLGIHDVHGRGDEKCKQVLNVSQLVYGPEGSDLVLMKLARPAVLDDFVSTIDLPNYGCTIPEKTSCSVYGWGYTGLINYDGLLRVAHLYIMGNEKCSQHHRGKVTLNESEICAGAEKIGSGPCEGDYGGPLVCEQHKMRMVLGVIVPGRGCAIPNRPGIFVRVAYYAKWIHKIILTYKVPQS
